The record followed here is US7608281B2, “Composition and use of RAR antagonists for promoting chondrogenesis” (T. Michael Underhill, priority 1999, dated 2009).

The subject of assay [1] is wild-type limb mesenchyme micromass cultures. The experiment in a line: Cartilage nodule formation in wild-type limb bud micromass cultures (alcian blue staining). It is filed as cell-based, murine. The protocol: (§1) Micromass cultures were prepared from murine E11.25 to E11.75 fore and hind limb buds as previously described with the following modifications (Cash et al. (1997) J. Cell Biol. 136, 445-457). After proteolytic digestion cells were filtered through a Cell Sieve ([…], Falcon) to obtain a single cell suspension. Culture media (40% Dulbecco's modified Eagle's medium, 60% F12 was supplemented with fetal bovine serum to 10%, Gibco-BRL) was changed daily. BMP-2 or -4 (Genetics Institutes), AGN 194301 (Allergan Pharmaceuticals) and/or purified Xenopus noggin protein was added to culture media at a concentration of 10 ng/ml, 1 μM and 10 ng/ml, respectively. Addition/removal experiments included either adding or removing supplemented media on the indicated culture day, 24 hours after culture initiation was considered day 1. To detect transgene-expressing cells, cultures were fixed stained as previously described, with magenta-gal (BioSynth International Inc.) being substituted for X-gal. This was followed by alcian blue staining for cartilage-specific glycosaminoglycans. Alcian blue staining of magenta-gal stained cultures turned the red precipitate to a purple color, this is a result of incubating magenta-gal stained cells at pH 1. This double-staining technique enables transgene-expressing cells to be localized with respect to alcian blue stained cartilage nodules.

Assay [2] relates to transgenic fore limb micromass cultures. Nature of the assay: Cartilage nodule formation in transgenic (caRARα) limb bud micromass cultures. It is filed as cell-based, murine. Particulars: 10 ng/ml BMP-2, six days, vs untreated. As for the experimental part:
as §1, with “nodules. […]” for “nodules.”

B1: BMP-2: bone morphogenetic protein 2 (Genetics Institutes) (protein, UniProt P12643 283-396, looked up)
Bone morphogenetic protein 2: QAKHKQRKRLKSSCKRHPLYVDFSDVGWNDWIVAPPGYHAFYCHGECPFPLADHLNSTNHAIVQTLVNSVNSKIPKACCVPTELSAISMLYLDENEKVVLKNYQDMVVEGCGCR
Regarding B1, the “increase in number of cartilage nodules” value in assay [1] (10 ng/ml BMP-2, six days, wild-type fore limb cultures, vs untreated) was roughly 125%; in assay [2] it was roughly 115%. Besides, in assay [1] (BMP-2 alone 10 ng/ml, cultures from the same limb buds, FIG. 5M), the “increase in nodule number” value was roughly 45%.
